Assay results from ChEMBL document CHEMBL1134971, “Novel human histamine H(3) receptor antagonists” (Bioorg Med Chem Lett, 2002).

Sequences of proteins named here, by UniProt entry; tags and fusion partners are left off. A change or cut given only in a name is not applied to a line headed by its entry.
UniProt Q9Y5N1: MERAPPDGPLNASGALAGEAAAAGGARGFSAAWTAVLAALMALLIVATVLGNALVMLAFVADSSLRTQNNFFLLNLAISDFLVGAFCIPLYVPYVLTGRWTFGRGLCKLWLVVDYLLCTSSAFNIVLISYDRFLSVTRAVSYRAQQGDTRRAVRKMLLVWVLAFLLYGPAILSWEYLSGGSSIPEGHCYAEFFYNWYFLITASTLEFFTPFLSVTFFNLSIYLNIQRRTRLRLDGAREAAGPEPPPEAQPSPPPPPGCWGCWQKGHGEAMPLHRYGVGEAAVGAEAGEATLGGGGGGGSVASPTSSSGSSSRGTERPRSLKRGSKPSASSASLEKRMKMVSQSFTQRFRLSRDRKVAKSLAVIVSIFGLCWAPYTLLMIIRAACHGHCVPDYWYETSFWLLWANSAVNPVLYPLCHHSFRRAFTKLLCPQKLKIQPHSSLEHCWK

Target: Histamine H3 receptor (Homo sapiens, UniProt Q9Y5N1)
Test: Binding affinity for human histamine H3 receptor

| Ki [µM] | SMILES |
| --- | --- |
| 5.4 | Cc1cccn2cc(-c3ccc(OCCCNCc4ccccc4)cc3)nc12 |
| 4.8 | CCCCN(CCCC)CCCOc1ccc(-c2cn3cc(Br)cc(Br)c3n2)cc1 |
| 2.7 | CCCCN(CCCC)CCCOc1ccc(-c2cn3cccc(C)c3n2)cc1 |
| 4.2 | CCCCN(CCCC)CCCOc1ccc(-c2cn3cccc(C)c3n2)c(C)c1 |
| 1.3 | CCCCN(CCCC)CCCOc1ccc(-c2cn3ccccc3n2)cc1 |
| 8 | CCCCN(CCCC)CCCOc1ccc(-c2cn3cccc(C)c3n2)cc1C |
